Tested on: dulcitol accumulation
Test: lowering of dulcitol (galactitol) accumulation in tissues of galactosemic rats (Table I, IN VIVO)
Parameters: species or system rat (Sprague-Dawley)
Conditions: 4 days; for % Lowering dulcitol accumulation IN VIVO, D: diaphragm; for % Lowering dulcitol accumulation IN VIVO, L: lens
Description: Such experiments are exemplified hereinbelow after the listing of the following general comments pertaining to these experiments:
(a) Four or more groups of six male rats, […], Sprague-Dawley strain, were used. The first group, the control group, was fed a mixture of laboratory chow (rodent Laboratory Chow, Purina) and […] at 20% (w/w %) concentration. […] The test compound was either admixed to the diet or administered by gavage. In experiments involving compound administration in the diet, the average dose administered was calculated from the actual food intake of the animals in each group. The concentration of galactose in the diet of the treated groups was the same as that for the untreated galactosemic group.
(b) After four days, the animals were killed by decapitation. The eyeballs were removed and punctured with a razor blade; the freed lenses were rolled gently on filter paper and weighed. The sciatic nerves were dissected as completely as possible and weighed. Both tissues when frozen can be kept up to two weeks before being analyzed for galactitol.
Only two minor reagent changes were made: (a) the rinsing mixture was an aqueous 5% (w/v) trichloroacetic acid solution and (b) the stock solution was prepared by dissolving 25 mg of dulcitol in 100 mL of an aqueous trichloroacetic acid solution. [N.B.: For each experiment the average value found in the tissue from rats fed the glucose diet was subtracted from the individual values found in the corresponding tissue in galactose-fed rats to obtain the amount of polyol accumulated.]
The figures under L, N, and D represent the percentage decrease of galactitol accumulation in the tissues of the lens, sciatic nerve, and diaphragm, respectively, for treated rats as compared to untreated rats.

## COc1ccc2c(C(=S)N(C)CC(=O)O)c(OCc3ccccc3)ccc2c1C(F)(F)F
10 mg/kg
  % Lowering dulcitol accumulation IN VIVO, D: 60%
  % Lowering dulcitol accumulation IN VIVO, L: N.S.
26 mg/kg
  % Lowering dulcitol accumulation IN VIVO, L: N.S.

## COc1ccc2c(C(=O)N(C)CC(=O)O)c(Cl)ccc2c1C(F)(F)F [Cl O OH, N-[[2-Chloro-6-methoxy-5-(trifluoromethyl)-1-naphthalenyl]carbonyl]-N-methylglycine]
26 mg/kg
  % Lowering dulcitol accumulation IN VIVO, D: 63%
  % Lowering dulcitol accumulation IN VIVO, L: N.S.
49 mg/kg
  % Lowering dulcitol accumulation IN VIVO, L: N.S.

## COc1ccc2c(C(=O)N(C)CC(=O)O)c(OCC(F)(F)F)ccc2c1C(F)(F)F [Example 3, N-[[6-Methoxy-2-(2,2,2-trifluoroethoxy)-5-(trifluoromethyl)-1-naphthalenyl]carbonyl]-N-methylglycine]
24 mg/kg
  % Lowering dulcitol accumulation IN VIVO, D: 63%
  % Lowering dulcitol accumulation IN VIVO, L: N.S.
50 mg/kg
  % Lowering dulcitol accumulation IN VIVO, L: N.S.

## COc1ccc2c(C(=O)N(C)CC(=O)O)c(F)ccc2c1C(F)(F)F [F O OH, N-[[2-Fluoro-6-methoxy-5-(trifluoromethyl)-1-naphthalenyl]carbonyl]-N-methylglycine]
16 mg/kg
  % Lowering dulcitol accumulation IN VIVO, D: 46%
  % Lowering dulcitol accumulation IN VIVO, L: N.S.
24 mg/kg
  % Lowering dulcitol accumulation IN VIVO, D: 70%
  % Lowering dulcitol accumulation IN VIVO, L: N.S.
52 mg/kg
  % Lowering dulcitol accumulation IN VIVO, D: 84%

## COc1ccc2c(C(=S)N(C)CC(N)=O)c(F)ccc2c1C(F)(F)F [F S NH2, [[[2-Fluoro-6-methoxy-5-(trifluoromethyl)-1-naphthalenyl]thioxomethyl]methylamino]acetamide]
2 mg/kg
  % Lowering dulcitol accumulation IN VIVO, D: 53%
  % Lowering dulcitol accumulation IN VIVO, L: N.S.
9.9 mg/kg
  % Lowering dulcitol accumulation IN VIVO, D: 87%
  % Lowering dulcitol accumulation IN VIVO, L: N.S.
5 mg/kg
  % Lowering dulcitol accumulation IN VIVO, L: N.S.
